“Also recorded” adds a separate entry of the source. Structures can show the parent of a compound that is named as a salt.
Assays:
[1] = tested on: CB1 receptor knockout -/- mice; assay: Blood pressure of anesthesized CB1 receptor knock-out (-/-) mice; format: in vivo, mouse; conditions: 3 mg/kg i.v. SR141716A pretreatment
Protocol: FIG. 6. The effect of 4 cannabanoid agonists on blood pressure of pentobarbital-anesthesized CB1 receptor knock-out mice (-/- mice, open circles, n=4-6) and their genetically matched controls with intact CB1 receptors (+/+ mice, filled circles, n=4-6).
FIG. 10. The effect of abnormal cannabidiol on blood pressure in CB1 receptor knockout -/- mice. Mice were anesthesized with sodium pentobartital, 50 mg/kg i.p. and were pretreated with vehicle (open triangles) or 3 mg/kg i.v. SR141716A (filled triangles) before the i.v. injection of 20 mg/kg abnCBD.
This possibility is further supported by our findings in genetically altered `knock-out` mice, which are deficient in CB1 receptors due to selective disruption of both alleles of the gene encoding this receptor (-/- mice).

[2] = tested on: CB1 receptor knockout -/- mice; assay: LPS-induced hypotension in CB1 receptor knockout -/- mice; format: in vivo, mouse; conditions: pretreatment with 3 mg/kg SR141716A; HCl

Cc1c(C(=O)NN2CCCCC2)nn(-c2ccc(Cl)cc2Cl)c1-c1ccc(Cl)cc1 [SR141716A, HCl]
inhibition of abnCBD-induced hypotension [1]: inhibited | prevention of LPS-induced hypotension [2]: inhibited; also recorded: can be prevented

Reference: patent US5939429A, “Cardiovascular uses of cannabinoid compounds” (Virginia Commonwealth University, priority 1998, dated 1999)
